Test results: US12172993B2 (priority 2018, dated 2024)

Experiments:
Aurora B = Aurora B (Homo sapiens (Human), UniProt Q96GD4); assay: biochemical; conditions: read-out: Residual activity (%) at 1 μM
in vivo = conditions: male, CD1, mouse, plasma, iv, 1 mg/kg
SRC (GST-HIS-tag) = SRC (GST-HIS-tag) (Homo sapiens (Human), UniProt P12931); assay type: biochemical
[1] = tested on: MC38 colorectal carcinoma cells; conditions: 100 mg/kg once daily (QD) p.o.

| Structure (SMILES) | remaining activity at 1 µM (Aurora B) | AUC(0-inf) (in vivo) | IC50 (SRC (GST-HIS-tag)) | tumour growth inhibition vs vehicle control [1] |
| --- | --- | --- | --- | --- |
| Cc1nc(Nc2ncc(C(=O)Nc3c(C)cccc3Cl)s2)cc(N2CCN(CCO)CC2)n1 [Compound A8, N-(2-chloro-6-methylphenyl)-2-((6-(4-(2-hydroxyethyl)piperazin-1-yl)-2-methylpyrimidin-4-yl)amino)thiazole-5-carboxamide, reference compound] | 90% | 1.06 µM·h | – | – |
| Cc1nc(Nc2ncc(C(=O)Nc3c(Br)ccnc3C)s2)cc(N2CCN(CCO)CC2)n1 [Compound C3, N-(4-bromo-2-methylpyridin-3-yl)-2-((6-(4-(2-hydroxyethyl)piperazin-1-yl)-2-methylpyrimidin-4-yl)amino)thiazole-5-carboxarmide] | – | – | < 2 nM | – |
| Cc1nc(Nc2ncc(C(=O)Nc3c(C)csc3Cl)s2)cc(N2CCN(CCO)CC2)n1 [Compound C7, N-(2-chloro-4-methylthiophen-3-yl)-2-((6-(4-(2-hydroxyethyl)piperazin-1-yl)-2-methylpyrimidin-4-yl)amino)thiazole-5-carboxamide] | – | – | < 1.5 nM | 29% |
